From ChEMBL document CHEMBL1146151, “Polyoxometalates--a new class of potent ecto-nucleoside triphosphate diphosphohydrolase (NTPDase) inhibitors” (Bioorg Med Chem Lett, 2006)

Target: T1, Ectonucleoside triphosphate diphosphohydrolase 2 (Rattus norvegicus, UniProt O35795)
T1 sequence (O35795 whole entry): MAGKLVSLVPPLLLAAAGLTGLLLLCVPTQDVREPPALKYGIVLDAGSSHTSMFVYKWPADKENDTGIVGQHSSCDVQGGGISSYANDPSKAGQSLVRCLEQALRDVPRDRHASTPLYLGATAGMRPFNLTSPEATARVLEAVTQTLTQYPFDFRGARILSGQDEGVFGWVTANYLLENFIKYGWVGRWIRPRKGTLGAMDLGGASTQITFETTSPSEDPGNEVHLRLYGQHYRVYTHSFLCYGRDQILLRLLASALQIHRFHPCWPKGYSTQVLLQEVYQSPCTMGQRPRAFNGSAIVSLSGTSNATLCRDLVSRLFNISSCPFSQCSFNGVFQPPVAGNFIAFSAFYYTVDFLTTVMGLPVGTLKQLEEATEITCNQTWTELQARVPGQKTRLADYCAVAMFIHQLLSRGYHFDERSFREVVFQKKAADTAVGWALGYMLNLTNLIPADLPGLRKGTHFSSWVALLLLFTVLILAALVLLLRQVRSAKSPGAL
Assay: Inhibition of rat recombinant NTPDase2 expressed in CHO cells
Format: cell-based

## Nc1c(S(=O)(=O)O)cc(Nc2ccc(Nc3nc(Cl)nc(Nc4cccc(S(=O)(=O)O)c4)n3)c(S(=O)(=O)O)c2)c2c1C(=O)c1ccccc1C2=O [RB 2]
  Ki: 24.2 µM
